Literature values, collected in patent US20220144913A1, “PERSONALIZED AND TIMED RELEASE OF BIOMOLECULES” (The General Hospital Corporation, priority 2019, published 2022).

Settings: cited from earlier work

Question: For Gaussia princeps luciferase [GLUC], which half-life (mouse circulation) is on record?
Answer: The half-life was 5 to 10 min.

Question: What about the half-life (mouse plasma) of the same substance?
Answer: Its half-life is ~20 min.

Like-named read-outs stand apart in the source and are kept apart here.
